Molecular target: T1, human CCR5 chemokine receptor (Homo sapiens, UniProt P51681)
T1 construct: expressed in transfected cells; host or cells: NIH 3T3 cells (murine), membranes
Assay: CCR5 membrane binding assay (inhibition of 125I-RANTES binding)
Conditions: membranes from NIH 3T3 cells expressing the human CCR5 chemokine receptor, one hour incubation
Description: CCR5 Membrane Binding Assay:
A high throughput screen utilizing a CCR5 membrane binding assay identifies inhibitors of RANTES binding. This assay utilizes membranes prepared from NIH 3T3 cells expressing the human CCR5 chemokine receptor which have the ability to bind to RANTES, a natural ligand for the receptor. Using a 96-well plate format, membrane preparations are incubated with ^125I-RANTES in the presence or absence of compound for one hour. Compounds are serially diluted over a wide range of 0.001 ug/ml to 1 ug/ml and tested in triplicates. Reaction cocktails are harvested through glass fiber filters, and washed thoroughly. Total counts for replicates are averaged and data reported as the concentration required to inhibit 50 percent of total ^125I-RANTES binding. Compounds with potent activity in the membrane binding assay are further characterized in seconday cell-based HIV-1 entry and replication assays.

Chains of the proteins cited; added tags and fusions are not shown.
UniProt P51681, whole entry: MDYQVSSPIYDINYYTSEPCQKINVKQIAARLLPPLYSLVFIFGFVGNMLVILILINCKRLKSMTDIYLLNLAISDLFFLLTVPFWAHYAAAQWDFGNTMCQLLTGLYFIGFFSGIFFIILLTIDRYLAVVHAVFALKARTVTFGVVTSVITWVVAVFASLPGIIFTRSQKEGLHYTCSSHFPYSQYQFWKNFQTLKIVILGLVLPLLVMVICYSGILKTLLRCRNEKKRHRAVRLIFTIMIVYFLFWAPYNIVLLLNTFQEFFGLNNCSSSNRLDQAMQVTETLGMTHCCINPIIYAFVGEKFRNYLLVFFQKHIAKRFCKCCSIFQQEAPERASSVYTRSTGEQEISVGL

Compound	Ki
CCO/N=C(\c1ccc(Br)cc1)C1CCN(C2(C)CCN(C(=O)c3c(Cl)cncc3Cl)CC2)CC1 [Example 5O]	0.4 nM
CCO/N=C(\c1ccc(Br)cc1)C1CCN(C2(C)CCN(C(=O)c3c(Br)cncc3Br)CC2)CC1 [Example 5Z]	0.3 nM

— patent EP1175402B1, “PIPERIDINE DERIVATIVES USEFUL AS CCR5 ANTAGONISTS” (SCHERING CORPORATION, priority 1999, dated 2000)
